# scFv variants of Ab-95 (light chain) against a SARS-CoV-2 spike peptide

Target: peptide PDVDLGDISGINAS, taken from heptad repeat 2 (HR2) of SARS-CoV-2 spike.

Parent scFv Ab-95: VH joined to VL by a (GGGGS)3 linker. Changes lie in the light chain CDRs alone.
VH: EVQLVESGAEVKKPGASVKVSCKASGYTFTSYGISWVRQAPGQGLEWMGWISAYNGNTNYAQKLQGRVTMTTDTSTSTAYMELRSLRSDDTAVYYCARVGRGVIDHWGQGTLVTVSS
VL: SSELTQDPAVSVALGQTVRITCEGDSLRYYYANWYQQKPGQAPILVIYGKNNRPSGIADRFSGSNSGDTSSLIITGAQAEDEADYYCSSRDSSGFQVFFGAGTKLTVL

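The parent was found by panning a naive human phage display library on the peptide. Variants in AAYL52 differ from the parent at up to three CDR positions; double and triple changes were sampled at random. AlphaSeq pools MATa yeast showing the antibodies with MATalpha yeast showing the peptide. Binding brings cells together so that they mate, and sequencing counts the barcode pairs among the diploids. The ratio of observed to expected reads was calibrated, replicate by replicate, on BCL2-family standards whose Kd was known from biolayer interferometry. The assay was run in three technical replicates.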

Substitutions are numbered in sequence along the VL above, starting at 1 (not Kabat).
Affinities are written as log10 Kd with Kd in nM; a lower number is a better binder.
Replicates are averaged; those with no signal do not enter the mean.
"nd" means that the variant was in the library but no mating with the target was seen in any replicate; the authors take this as a sign of poor binding, and no number exists.
Background: pairings of library AAYL52 with three empty control strains gave a value in 28% of cases (median 3.91, 5th percentile 2.90). Values in that range, when seen in few replicates, are hard to tell from nonspecific mating. The control count says in how many pairings with the empty strains this scFv gave a signal.

| mean, log10 nM | detected | signal with controls | changes |
|---|---|---|---|
| 1.98 | 3 of 3 | 2 of 9 | S88F D91G S93A |
| 3.52 | 3 of 3 | 1 of 9 | Y29I Y30D S92T |
| 4.86 | 1 of 3 | 3 of 9 | S55I S89K S93W |
| 3.91 | 1 of 3 | 1 of 9 | D91R S93P F98G |
| 4.47 | 1 of 3 | 1 of 9 | G49E R53S F95V |
| 4.05 | 2 of 3 | 2 of 9 | E23T R28M A32Q |
| 3.51 | 1 of 3 | 1 of 9 | G49M R53Q |
| 3.87 | 2 of 3 | 1 of 9 | L27C Y31D N51L |
| 4.42 | 1 of 3 | 2 of 9 | S26E N52S D91K |
| nd | 0 of 3 | 3 of 9 | D25E L27R N51R |
| 2.96 | 3 of 3 | 3 of 9 | S55P D91A F95S |
| nd | 0 of 3 | 2 of 9 | E23K S26K V97Y |
| 2.02 | 3 of 3 | 2 of 9 | Y31N K50C D91G |
| 4.24 | 2 of 3 | 2 of 9 | R28F N51W S92N |
| 4.19 | 1 of 3 | 4 of 9 | A32W N33E S89F |
| 5.52 | 1 of 3 | 1 of 9 | R90E G94V |
| 2.04 | 3 of 3 | 0 of 9 | Y31A S92P |
| 4.10 | 3 of 3 | 2 of 9 | L27Y A32P S92Y |
| 3.83 | 2 of 3 | 2 of 9 | R53C F98V |
| 3.49 | 1 of 3 | 0 of 9 | A32K S93K G94F |
| nd | 0 of 3 | 1 of 9 | L27M N51K G94W |
| 4.13 | 1 of 3 | 1 of 9 | L27S P54L F95N |
| 4.12 | 1 of 3 | 2 of 9 | A32Y N52C Q96N |
| 2.75 | 3 of 3 | 3 of 9 | E23H R53H V97L |
| 3.50 | 1 of 3 | 3 of 9 | N33G K50I F98E |
| 3.52 | 3 of 3 | 2 of 9 | R53H S92P V97W |
| 2.94 | 3 of 3 | 2 of 9 | S26W N51D S88M |
| nd | 0 of 3 | 2 of 9 | S26R R90G V97C |
| 1.64 | 3 of 3 | 3 of 9 | G24H D25G Y30N |
| 2.77 | 1 of 3 | 4 of 9 | L27I Y29R G94P |
| 2.67 | 1 of 3 | 4 of 9 | L27T S55W D91Q |
| 4.09 | 3 of 3 | 5 of 9 | N33M N52T F98S |
| 3.11 | 2 of 3 | 1 of 9 | G24P G49D S55T |
| 3.81 | 2 of 3 | 0 of 9 | G49E S55D D91Q |
| 4.28 | 1 of 3 | 1 of 9 | G94L Q96M V97G |
| 1.62 | 3 of 3 | 2 of 9 | S88V Q96G V97A |
| 1.51 | 3 of 3 | 5 of 9 | E23P Y29N Y30T |
| 0.52 | 3 of 3 | 4 of 9 | Y30Q S55C Q96K |
| 4.52 | 3 of 3 | 2 of 9 | L27Q Y31Q G49W |
| 2.96 | 2 of 3 | 2 of 9 | G49F S89A F95L |
| 3.99 | 3 of 3 | 5 of 9 | S26F G49F F98W |
| 2.63 | 3 of 3 | 6 of 9 | A32Y S55L S93D |
| 3.68 | 2 of 3 | 1 of 9 | Y29T S89D F95H |
| 2.55 | 3 of 3 | 4 of 9 | G24L R28E A32Q |
| 3.89 | 3 of 3 | 3 of 9 | R28T K50A R90Y |
| 1.85 | 3 of 3 | 3 of 9 | Y29N S93F Q96E |
| nd | 0 of 3 | 2 of 9 | E23P Y31G D91T |
| 4.54 | 3 of 3 | 3 of 9 | R28W N52D S93G |
| 2.12 | 3 of 3 | 2 of 9 | A32G P54F D91Y |
| 3.39 | 3 of 3 | 2 of 9 | N51E P54M Q96M |
| 2.45 | 3 of 3 | 2 of 9 | E23M R90N D91V |
| 4.08 | 2 of 3 | 6 of 9 | S26C G49Q S88L |
| 3.92 | 3 of 3 | 4 of 9 | D25H S26T R53H |
| 2.85 | 1 of 3 | 1 of 9 | D25V N33F N52G |

Reference: Engelhart et al. 2022, doi:10.1038/s41597-022-01779-4. File: FLAb, binding data.